The target in test [1] is human BclxLΔLT (BclxL without the flexible loop and the transmembrane helix) (human, UniProt Q07817-1 1-212, flexible loop (residues 44–84) deleted). Description: NMR.
The target of test [2] is T1, human BclxLΔLT (BclxL without the flexible loop and the transmembrane helix) (human, UniProt Q07817-1 1-212, flexible loop (residues 44–84) deleted).
T1 construct: BclxL, human, residues 1-43 and 85-212 (flexible loop 44-84 and transmembrane helix deleted); the NMR methods say 1-44 and 85-213; Isotope-labelled for NMR; In the crystal it stood fused to VDAC1-N(1-26) on one chain; source: E. coli BL21 (DE3), purified (Ni-NTA, SEC)
Description: ITC; MicroCal PEAQ-ITC, 20 °C; BclxLΔLT in the cell (250 µM for the linear, 50 µM for the stapled peptide), peptide in the syringe (500 µM stapled); 10 mM NaPi pH 7.0, 50 mM NaCl, 0.5 mM EDTA, 1 mM DTT. As to conditions: both partners purified. Background: In ITC the heat of successive injections is recorded.

Chains of the proteins cited; added tags and fusions are not shown. Lines headed by an entry give the natural chain unless they say otherwise; changes in a name come on top. A line that says so, or that is headed by a name, gives the form on record, which may keep a tag or linker.
UniProt Q07817, other isoform, or with tags, fused parts or gaps with the stated changes: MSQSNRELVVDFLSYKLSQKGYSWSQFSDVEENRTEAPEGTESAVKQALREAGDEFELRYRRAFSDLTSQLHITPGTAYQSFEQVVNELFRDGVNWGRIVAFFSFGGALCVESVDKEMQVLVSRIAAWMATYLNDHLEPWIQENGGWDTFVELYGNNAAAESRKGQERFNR
UniProt P21796: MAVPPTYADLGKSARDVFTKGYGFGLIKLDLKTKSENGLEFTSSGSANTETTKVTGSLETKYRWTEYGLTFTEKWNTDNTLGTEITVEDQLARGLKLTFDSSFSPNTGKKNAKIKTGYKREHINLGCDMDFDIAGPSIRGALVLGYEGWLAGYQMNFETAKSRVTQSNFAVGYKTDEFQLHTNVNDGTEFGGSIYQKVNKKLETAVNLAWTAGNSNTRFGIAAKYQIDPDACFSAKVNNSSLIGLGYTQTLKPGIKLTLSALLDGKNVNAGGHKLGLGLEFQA

Broadly, the Kd is the free concentration of one partner at which half of the binding sites on the other are occupied at equilibrium, for simple one-to-one binding. High values mean lower affinity, low ones higher affinity. In test [1], YADLGKSARDVFTKG (hydrocarbon staple between residues 11 and 15) [hydrocarbon-stapled VDAC1 peptide encompassing residues 7–21 (stVDAC1-N)] returned a dissociation constant Kd of 5 µM.

B1: VDAC1-N-terminal peptide (residues 1–24), linear (peptide, UniProt P21796 1-24, looked up)
peptide: MAVPPTYADLGKSARDVFTKGYGF
notes: VDAC1, human, N-terminal part, residues 1-24; other VDAC1-N constructs of 2-25 and 1-26 are described in the methods; also called linear VDAC1-N peptide; linear peptide
The molecule B1 returned an equilibrium dissociation constant (Kd) in test [2] of 29 µM.

Source of the values: article PMC12559223, “Structural basis of apoptosis induction by the mitochondrial voltage-dependent anion channel” (Nature Communications, 2025).
